Protein sequences, listed by entry. Tags and fused reporters are not part of them. Residues count along the entry.
UniProt C7C422, 29-270 M67C: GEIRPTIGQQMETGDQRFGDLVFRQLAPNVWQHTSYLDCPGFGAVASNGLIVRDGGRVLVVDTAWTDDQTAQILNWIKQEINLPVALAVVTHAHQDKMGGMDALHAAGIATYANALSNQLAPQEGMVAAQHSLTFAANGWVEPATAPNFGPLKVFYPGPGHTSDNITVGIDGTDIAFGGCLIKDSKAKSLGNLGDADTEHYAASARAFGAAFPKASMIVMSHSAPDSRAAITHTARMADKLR
UniProt P26918, 28-254: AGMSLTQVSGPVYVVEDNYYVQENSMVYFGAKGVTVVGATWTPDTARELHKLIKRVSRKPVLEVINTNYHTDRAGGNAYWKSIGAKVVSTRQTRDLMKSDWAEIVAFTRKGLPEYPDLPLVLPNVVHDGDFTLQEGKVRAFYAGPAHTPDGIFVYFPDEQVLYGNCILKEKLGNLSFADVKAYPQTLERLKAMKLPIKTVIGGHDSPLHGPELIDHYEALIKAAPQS

In PMC5038302 (Antimicrobial Agents and Chemotherapy, 2016):

Tests used:
[1] = target: 19F-labeled NDM-1* (NDM-1 M67C) (Klebsiella pneumoniae, UniProt C7C422, M67C); settings: NDM-1* 0.08 mM, avibactam 2 mM, 50 mM HEPES pH 7.5, 200 mM NaCl, 298 K
[2] = tested on: 19F-labeled SPM-1* (SPM-1 Y152C); settings: SPM-1* 0.08 mM, avibactam 2 mM, 50 mM HEPES pH 7.5, 200 mM NaCl, 298 K
[3] = target: CphA (Aeromonas hydrophila, UniProt P26918)

Structure (SMILES): NC(=O)[C@@H]1CC[C@@H]2CN1C(=O)N2OS(=O)(=O)O [avibactam]
- Change of protein-bound 19F NMR signals on addition of avibactam [1]: clear shifts and broadening
- Change of protein-bound 19F NMR signals on addition of avibactam [2]: clear shifts and broadening
- kcat/Km, cacodylate buffer ([3]; Caco-2, pH 7): <2 M⁻¹ s⁻¹
- v0/E0, HEPES buffer ([3]; pH 7.5): 0.35 min⁻¹
